In paper PMC11172478, “1,3,5-Triazine as Branching Connector for the Construction of Novel Antimicrobial Peptide Dendrimers: Synthesis and Biological Characterization” (International Journal of Molecular Sciences, 2024):

How the values were obtained:
[1] = test system: L-929 fibroblasts; assay: Cytotoxicity, resazurin reduction; assay type: cell-based, murine; details: L-929 cells, 24 h, resazurin fluorescence
Procedure: (§1) The cytotoxicity assay was performed in the human hepatocellular carcinoma cell line Hep G2 ATCC and murine L-929 fibroblasts (NCTC clone 929, ECACC 88102702) obtained from the laboratory of Dr. Pérez-Tomás (Cancer Cell Biology, University of Barcelona). The cytotoxicity of the selected peptides was determined by measuring the intracellular reduction of resazurin sodium salt (Sigma-Aldrich, St. Louis, MO, USA). Briefly, HepG2 and L-929 cells were grown in RPMI 1640 or MEM medium, respectively (Biochrom AG, Berlin, Germany), supplemented with 10% fetal bovine serum. Cells from pre-confluent cultures were harvested with trypsin-EDTA and maintained at 37 °C in 5% CO2. Then, 100 µL of each cell line was seeded into 96-well flat-bottomed microplates and incubated for 24 h at 37 °C. The medium was then replaced with 200 μL of medium containing the dendrimers at concentrations ranging from 64 to 0.125 μg/mL and the microplates were incubated for 24 h at 37 °C. Next, 20 μL of resazurin was added to each well and the plates were incubated under the same conditions for 24 h. Fluorescence was measured using a multiwell scanning spectrophotometer at an excitation wavelength of 530 nm and an emission wavelength of 590 nm. Cytotoxicity was then calculated by comparing the fluorescence of the treated and untreated cells (Figure S22).

[2] = test system: Hep G2 hepatocellular carcinoma cell line; assay: Cytotoxicity, resazurin reduction; assay type: cell-based, human; details: HepG2 cells, 24 h, resazurin fluorescence
Procedure: as §1

H-[(LK)3-EDA]4-(TA-EDA)2-TA-(LK)3-NH2 [Dendrimer 3]
% Cytotoxicity at 64µg/mL, L-929 [1]: 0% | % Cytotoxicity at 64µg/mL, HepG2 [2]: 0%
